From patent US6720304B1, “Conjugate comprising a folic acid antagonist and a carrier” (priority 1997, dated 2004) come the findings set out here.

Entries after “also recorded” stand apart in the source; their conditions may differ.

Data set [1] relates to healthy Sprague-Dawley rats. Nature of the data set: Toxicity of the conjugates in healthy rats. Format: in vivo, rat. Here is the method:
For this experiment, the conjugate according to the invention of D-methotrexate and human serum albumin (D-MTX-HSA) from Example 1 was used. Furthermore, the conjugate of methotrexate and human serum albumin (MTX-HSA) known from DE-A-.41 22 210.5 was employed.
Each of 5 healthy Sprague-Dawley rats received D-MTX-HSA or MTX-HSA. In each case, 4 mg conjugate (based on the amount of MTX or D-MTX of the conjugate) per kg body weight was injected at a 2-day interval.

Data set [2] has as its system Walker-256 carcinosarcoma. The experiment in a line: Tumor therapy in Walker-256 carcinosarcoma-carrying rats. In kind it is in vivo, rat. The note with it: number of 5 rats.
Where [3] appears, read: number of the 5 rats affected, 2 × 4 mg/kg injected at a 2-day interval, after the 3rd day.
The mark [4] stands for this setting: on the 4th day, 5 rats, 4 mg/kg at a 2-day interval.

For the substance MTX-HSA, the “side-effects (in words)” value in data set [1] (healthy rats, 4 mg/kg at a 2-day interval, 4 mg/kg) is given as “strong side-effects from the 3rd day; also recorded: considerable side-effects already appeared”. Also, the “MI: muscus membrane inflammation” value in data set [1] (number of the 5 rats affected, 2 × 4 mg/kg (based on MTX or D-MTX) injected at a 2-day interval, after the 3rd day) was 5. Further, in data set [1] (setting [3]), the “DI: diarrhea” value was found to be 5, the “SC: shaggy coat” value is 5 and the “WL: weight loss” value is 5. Besides, in data set [1] (number of the 5 rats, 2 × 4 mg/kg injected at a 2-day interval, after the 3rd day), the death is on record as 5. In data set [1] (setting [4]), the “rats found dead in their cage” value came to 2 rats and the “rats that had to be euthanized because of very strong side-effects” value is 3 rats. In data set [2] (3 × 2 mg/kg (based on MTX) at 2-day intervals, start on 6th day after tumor transplantation), this substance had a remission of 3. Also, in data set [2] (3 × 2 mg/kg at 2-day intervals), the “SE: side-effects” value worked out at 3, the “death: death by tumor relapse” value is reported as 2 and the relapse was found to be 2.
